Earlier results on one molecule are cited in patent US4645774A, “Aminoethoxybenzylalcohol derivatives, process for their preparation and pharmaceutical compositions containing them” (Richter Gedeon Vegyeszeti Gyar Rt, priority 1982, dated 1987).

This series has as its system CNS. The note with it: when administered in the effective dose; cited from earlier work.

For `CCC1(c2ccccc2)C(=O)NC(=O)NC1=O` [phenobarbital, reference compound], the side-effect in therapy entry is listed as “CNS (sedative, despiration-depressing) side-effect”.
